Reference: patent US20210260106A1, “CHLORITE-CONTAINING COMPOSITIONS” (ClearCrescent Technologies, LLC, priority 2008, published 2021)
Where two headings read alike, the source gives them in different places.

Tests used:
[1] = test system: human cells in tissue culture
[2] = SC applied to section of subject's back, irritation; assay type: in vivo, human; conditions: 1.80% SC; observed at 15 minute and 40 minute intervals
Method: 1.80% SC liquid was applied to a 1″ tall by 2.5″ wide section of subject's back and observed at 15 minute and 40 minute intervals.

[3] = preliminary testing

Substance: sodium chlorite
- Toxicity (human cells) ([1]; 0.5% sodium chlorite, listed as Sodium Chlorite): None
- Toxicity (human cells) ([1]; 2.0% sodium chlorite): marginally toxic
- Toxicity (human cells) ([1]; 2.0% sodium chlorite, listed as Sodium Chlorite): Toxic
- redness or irritation of back skin [2]: no sign of redness or report of irritation
- concentration tolerated in mucous membranes [3]: ≤ 2%
